# Earlier results as cited in article PMC4322620 (Frontiers in Pharmacology, 2015).
# Tested on: formalin-induced pain
# Conditions: ref Roussy et al., 2008; cited from earlier work
compound,measurement,value
CC[C@H](C)[C@H](NC(=O)[C@H](Cc1ccc(O)cc1)NC(=O)[C@@H]1CCCN1C(=O)[C@H](CCCNC(=N)N)NC(=O)[C@H](CCCNC(=N)N)NC(=O)[C@@H]1CCCN1C(=O)[C@H](CCCCN)NC(=O)[C@H](CC(N)=O)NC(=O)[C@H](CCC(=O)O)NC(=O)[C@H](Cc1ccc(O)cc1)NC(=O)[C@H](CC(C)C)NC(=O)[C@@H]1CCC(=O)N1)C(=O)N[C@@H](CC(C)C)C(=O)O,ED50 in rat formalin assay,0.11 nmol
